Data from patent US20060094068A1, “Predictive markers in cancer therapy” (priority 2002, published 2006).

Tests used:
Erk1/2 [1] = assay: p-Erk1/2 in Hb4a cells (Western blot); settings: 72 h, GW572016 5 μM, Herceptin 10 μg/ml
Erk1/2 [2] = assay: Erk1/2 activation in BT474 cells (Western blot); settings: 72 h, GW572016 500 nM or 1 μM, Herceptin 10 μg/ml
Erk1/2 [3] = assay: Erk1/2 activation in HN5 cells (Western blot); settings: 72 h, GW572016 500 nM or 1 μM, Herceptin 10 μg/ml

Herceptin™: humanized anti-erbB2 monoclonal antibody [reference compound]
Baseline p-Erk (Erk1/2 [1]): relatively little change | p-Erk1/2 levels compared with untreated controls (Erk1/2 [2]): very little effect | p-Erk1/2 levels compared with untreated controls (Erk1/2 [3]): very little effect
